The values below come from patent US9192667B2, “Method of treating cancer by administering CSF-1R antibodies and a TLR9 agonist” (Hoffmann-La Roche Inc., priority 2013, dated 2015).

By UniProt entry, the sequences of proteins in these tests, tags left out. Chains listed by the source or under a name are the forms on record and can include a tag or linker. Residues count along the entry.
UniProt P07333, 20-311: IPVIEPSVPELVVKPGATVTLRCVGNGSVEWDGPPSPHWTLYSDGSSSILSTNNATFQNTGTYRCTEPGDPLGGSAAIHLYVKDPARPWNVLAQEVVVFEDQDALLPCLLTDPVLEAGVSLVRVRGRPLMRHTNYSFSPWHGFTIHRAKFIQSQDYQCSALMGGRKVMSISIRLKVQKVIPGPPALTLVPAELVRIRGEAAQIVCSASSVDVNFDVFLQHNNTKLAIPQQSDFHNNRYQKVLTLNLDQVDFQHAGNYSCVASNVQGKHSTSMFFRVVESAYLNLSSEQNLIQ
UniProt P07333, with tags, fused parts or gaps DEL295-399: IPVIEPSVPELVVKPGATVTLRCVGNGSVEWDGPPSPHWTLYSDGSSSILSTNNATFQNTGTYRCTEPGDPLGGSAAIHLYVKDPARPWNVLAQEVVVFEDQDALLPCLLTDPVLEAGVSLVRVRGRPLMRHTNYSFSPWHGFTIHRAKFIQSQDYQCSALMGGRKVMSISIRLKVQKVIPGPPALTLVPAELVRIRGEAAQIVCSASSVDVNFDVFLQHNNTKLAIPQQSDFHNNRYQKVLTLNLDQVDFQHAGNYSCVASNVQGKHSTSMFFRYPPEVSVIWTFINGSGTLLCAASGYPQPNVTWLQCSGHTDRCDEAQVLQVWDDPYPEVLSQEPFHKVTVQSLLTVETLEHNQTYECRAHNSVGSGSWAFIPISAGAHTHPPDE
UniProt P07333, 20-512: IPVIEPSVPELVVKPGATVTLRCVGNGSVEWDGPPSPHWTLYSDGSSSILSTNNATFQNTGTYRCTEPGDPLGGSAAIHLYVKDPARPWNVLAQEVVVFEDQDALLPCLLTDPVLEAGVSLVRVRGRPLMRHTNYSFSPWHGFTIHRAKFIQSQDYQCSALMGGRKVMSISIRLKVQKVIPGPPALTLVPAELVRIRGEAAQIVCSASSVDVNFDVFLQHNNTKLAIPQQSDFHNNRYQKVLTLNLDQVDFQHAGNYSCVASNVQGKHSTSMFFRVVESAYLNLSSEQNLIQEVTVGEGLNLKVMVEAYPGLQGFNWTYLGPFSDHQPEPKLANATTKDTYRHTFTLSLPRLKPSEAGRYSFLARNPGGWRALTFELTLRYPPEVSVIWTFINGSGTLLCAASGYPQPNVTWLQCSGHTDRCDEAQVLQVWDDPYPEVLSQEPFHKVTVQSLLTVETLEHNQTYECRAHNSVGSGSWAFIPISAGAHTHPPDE

Entries after “also recorded” stand apart in the source; their conditions may differ.

The target of assay [1] is T1, human CSF-1R fragment D1-D3 (Homo sapiens, UniProt P07333).
T1 construct: His-Avitag; made in house
The assay can be described thus: SPR binding of anti-CSF-1R antibodies to human CSF-1R fragment D1-D3. The method, then: The term “binding to human CSF-1R fragment D1-D3” refers to a binding affinity determination by a Surface Plasmon Resonance assay (Biacore assay). The test antibody is captured to the surface and the human CSF-1R fragment D1-D3 (SEQ ID NO: 66) was added and the respective binding affinities were determined.
(§1) Instrument: Biacore T100 (GE Healthcare)
Software: • T100 Control, Version 1.1.11 • B3000 Evaluation, Version 4.01 • Scrubber, Version 2.0a Assay format Chip: CM5-Chip Antibodies against CSF-1R were captured via amine coupled capture molecules. Using the single cycle kinetics five increasing concentrations of human CSF-1R fragment D1-D3 (SEQ ID NO: 66) were injected. Human CSF-1R fragment D1-D3 was subcloned into pCMV-presS-HisAvitag expression vector.
Anti CSF-1R SC 2-4A5 (Santa Cruz Biotechnology, US; Sherr, C. J. et al., Blood 73 (1989) 1786-1793) which inhibits the ligand-receptor interaction, and Mab 3291 (R&D-Systems) were used as reference controls.
Capture molecules: Anti mouse Fcγ antibodies (from goat, Jackson Immuno Research JIR115-005-071) for antibodies according to the invention and the R&D-Systems control Mab 3291 and Anti rat Fcγ antibodies (from goat, Jackson Immuno Research JIR112-005-071) for the reference control anti CSF-1R SC 2-4A5.
Standard amine coupling according to the manufacturer's instructions: running buffer: HBS—N buffer, activation by mixture of EDC/NHS, aim for ligand density of 2000 RU; the capture-Abs were diluted in coupling buffer NaAc, pH 4.5, c=10 mg/mL; finally remaining activated carboxyl groups were blocked by injection of 1 M Ethanolamin. […]
Single Cycle Kinetics was measured at a flow rate of 30 μL/min by five consecutive injections of the analyte with concentrations, c=7.8, 31.25, 125, 500 and 2000 nM, without regeneration. […]
Kinetic parameters were calculated by using the usual double referencing (control reference: binding of analyte to capture molecule; Flow Cell: subdomain CSF-1R concentration “0” as Blank) and calculation with model ‘titration kinetics 1:1 binding with draft’.
A general note: Surface plasmon resonance follows binding to a sensor surface in real time, without labels.

Assay [2] addresses T2, human CSF-1R fragment delD4 (Homo sapiens, UniProt P07333, DEL295-399).
T2 construct: PreScission site + human IgG1 Fc (aa100-330) + 6xHis (C, cleaved yes); made in house; host or cells: Hek293 FreeStyle suspension cells, transient transfection
Briefly: SPR binding of anti-CSF-1R antibodies to immobilized human CSF-1R fragment delD4. The following applies: Biacore. The method, then:
(§2) The “binding to human CSF-1R fragment delD4 (SEQ ID NO: 65) and to human CSF-1R Extracellular Domain (SEQ ID NO: 64)” as used herein is measured by a Surface Plasmon Resonance assay (Biacore assay) as described in Example 4. The human CSF-1R fragment delD4 (SEQ ID NO: 65) or human CSF-1R Extracellular Domain (SEQ ID NO: 64), respectively, are captured to the surface (each to a separate surface) and the test antibodies were added (each in a separate measurement) and the respective binding signals (Response Units (RU)) were determined. Reference signals (blank surface) were subtracted. If signals of nonbinding test antibodies were slightly below 0 the values were set as 0. Then the ratio of the respective binding signals (binding signal (RU) to human CSF-1R fragment delD4/binding signal (RU) to human CSF-1R Extracellular Domain (CSF-1R-ECD)) is determined. The antibodies according to the invention have a ratio of the binding signals (RU(delD4)/RU(CSF-1R-ECD) of 1:50 or lower, preferably of 1:100 or lower (the lower included end is 0 (e.g. if the RU is 0, then the ratio is 0:50 or 0:100)).
(§3) Determination of the Binding of Anti-CSF-1R Antibodies to Human CSF-1R Fragment delD4 and to Human CSF-1R Extracellular Domain (CSF-1R-ECD) (Binding Signals as Response Units (RU):
as §1
(§4) Software: • T100 Control, Version 2.0.1 • T100 Evaluation, Version 2.0.2 Assay format Chip: CM5 Temperature: 25° C.
(§5) CSF-1R fragments were immobilized via amine coupling. To compare the binding of different anti-CSF-1R antibodies according to the invention one concentration of the test antibody was injected. Anti CSF-1R Mab3291 (R&D-Systems) and SC 2-4A5 (Santa Cruz Biotechnology, US—see also Sherr, C. J. et al., Blood 73 (1989) 1786-1793), was used as reference control, anti-CCR5 m<CCR5>Pz03.1C5 (deposited as DSM ACC 2683 on 18 Aug. 2004 at DSMZ) as negative control, all under the same conditions as the anti-CSF-1R antibodies according to the invention.
(§6) Standard amine coupling according to the manufacturer's instructions: running buffer: PBS-T (Roche: 11 666 789+0.05% Tween20: 11 332 465), activation by mixture of EDC/NHS, injection of human CSF-1R fragment delD4 (comprising the extracellular subdomains D1-D3 and D5) (SEQ ID NO: 65) and human CSF-1R Extracellular Domain (CSF-1R-ECD) (comprising the extracellular subdomains D1-D5) (SEQ ID NO: 64) for 600 seconds at flow rate 10 μl/min; diluted in coupling buffer NaAc, pH 5.0, c=10 μg/mL; finally remaining activated carboxyl groups were blocked by injection of 1 M Ethanolamin.
(§7) Binding was measured at a flow rate of 30 μL/min by one injection of the analyte with concentration c=10 nM. […]
(§8) Signals were measured by a report point 10 seconds after end of injection.

Assay [3] deals with T3, human CSF-1R Extracellular Domain (CSF-1R-ECD) (Homo sapiens, UniProt P07333).
T3 construct: PreScission site + human IgG1 Fc (aa100-330) + 6xHis (C); made in house; host or cells: Hek293 FreeStyle suspension cells, transient transfection
Briefly: SPR binding of anti-CSF-1R antibodies to immobilized human CSF-1R Extracellular Domain. The note with it: Biacore, immobilized CSF-1R-ECD. The procedure:
as §2, §3, §1, §4, §5, §6, §7, §8

The target in assay [4] is T3, human CSF-1R Extracellular Domain (CSF-1R-ECD). Briefly: SPR binding affinity of anti-CSF-1R antibodies to human CSF-1R. The note with it: SPR 35° C. The procedure: Instrument: BIACORE® A100
Human CSF-1R Extracellular Domain (CSF-1R-ECD) (comprising the extracellular subdomains D1-D5) (SEQ ID NO: 64) (R&D-Systems 329-MR or subcloned pCMV-presS-HisAvitag-hCSF-1R-ECD) was added in various concentrations in solution. Association was measured by an CSF-1R-injection of 1.5 minutes at 35° C.; dissociation was measured by washing the chip surface with buffer for 10 minutes at 35° C. For calculation of kinetic parameters the Langmuir 1:1 model was used.

B1: Mab 2F11: murine monoclonal anti-CSF-1R antibody; heavy chain variable domain SEQ ID NO: 7, light chain variable domain SEQ ID NO: 8 (antibody, listed as Mus musculus, V domains shown)
VH: QVQLKESGPGLVAPSQSLSITCTVSGFSLTTYDISWIRQSPGKGLEWLGVIWTDGGTNYNSPFMSRLSIRKDNSKSQVFLKMNRLQTDDTAIYYCVRDQRLYFDVWGAGTTVTVSS
VL: NIVMTQSPKSMSMSVGERVTLNCKASEDVNTYVSWYQQQPEQSPKLLIYGASNRYTGVPDRFTGGGSTTDFTLTISSVQAEDLADYFCGQSFSYPTFGTGTKLEIK
Regarding B1, the “binding to human CSF-1R fragment D1-D3” value in assay [1] is “showed no binding”. Also, the “binding to CSF-1R fragment delD4” value in assay [2] is “no binding was detected; also recorded: do not bind; also recorded: did not bind”. Moreover, the “binding to CSF-1R-ECD” value in assay [3] was “showed binding”. For the same molecule, in assay [4], the ka is 177000 M⁻¹ s⁻¹ and the kd came out at 5.18e-05 s⁻¹.

B2: Mab 2H7: murine monoclonal anti-CSF-1R antibody; heavy chain variable domain SEQ ID NO: 83, light chain variable domain SEQ ID NO: 84 (antibody, listed as Mus musculus, V domains shown)
VH: QVQLKESGPGLVAPSKSLSITCTVSGSSLDSFDISWIRQPPGKGLEWLGVIWTGGGTNYNSGFMSRLRISKDNSKSQVFLKMSSLQSDDTAIYYCVRDPRLYFDVWGAGTTVTVSS
VL: NIVMTQSPKSMSMSVGERVTLSCKASEDVVTYVSWYQQKPEQSPKLLIYGASNRYTGVPDRFTGSGSATDFTLTISSIQAEDLADYYCGQTFSYPTFGTGTKLEIK
As to B2, the “binding to CSF-1R fragment delD4” value in assay [2] is on record as “no binding was detected; also recorded: did not bind”. In addition, the “binding to CSF-1R-ECD” value in assay [3] is “showed binding”. In assay [4], this molecule had a ka of 147000 M⁻¹ s⁻¹ and a kd of 3.12e-05 s⁻¹.

B3: Mab 2E10: murine monoclonal anti-CSF-1R antibody; heavy chain variable domain SEQ ID NO: 15, light chain variable domain SEQ ID NO: 16 (antibody, listed as Mus musculus, V domains shown)
VH: QVQLKESGPGLVAPSKSLSITCTVSGSSLDSFDISWIRQSPGKGLEWLGVIWTGGGTNYNSGFMSRLRITKDNSKSQVLLKMNSLQSDDTAIYYCVRDPRLYFDVWGAGTTVTVSS
VL: NIVMTQSPKSMSMSVGERVTLSCKASEDVVTYVSWYQQKPDQSPKLLIYGASNRYTGVPDRFTGSGSATDFTLTISSVQAEDLADYYCGQTFSYPTFGTGTKLEIK
B3: the “binding to human CSF-1R fragment D1-D3” value in assay [1] was “showed no binding”. Moreover, the “binding to CSF-1R fragment delD4” value in assay [2] was “no binding was detected; also recorded: do not bind; also recorded: did not bind”. In addition, in assay [3], the “binding to CSF-1R-ECD” value is reported as “showed binding”. In assay [4], the ka amounted to 152000 M⁻¹ s⁻¹ and the kd is 2.97e-05 s⁻¹.

B4: Mab 1G10: murine monoclonal anti-CSF-1R antibody; heavy chain variable domain SEQ ID NO: 75, light chain variable domain SEQ ID NO: 76 (antibody, listed as Mus musculus, V domains shown)
VH: RVQLKESGPGLVAPSQSLSITCTVSGFSLTSYDISWIRQSPGKGLEWLGVIWSGGGTNYNSPFMSRLRISKDDSRSQVFLKVNRLQTDDTAIYYCVRDLRLYFDVWGAGTTVTVSS
VL: KIVMTQSPKSMSVSVGERVSLSCKASEDVGTYVSWYQQKPEQSPKLLIYGSSNRYTGVPDRFTGSGSATDFTLTISSVQAEDLADYSCGQSFTYPTFGTGTKLEIK
In the case of B4, the “binding to human CSF-1R fragment D1-D3” value in assay [1] is recorded as “showed no binding”. Further, in assay [2], the “binding to CSF-1R fragment delD4” value is reported as “no binding was detected; also recorded: did not bind”. The “binding to CSF-1R-ECD” value in assay [3] is listed as “showed binding”. In assay [4], this molecule had a ka of 175000 M⁻¹ s⁻¹ and a kd of 6.28e-05 s⁻¹.
